Measured values published in article PMC9386001, “Identification of naturally occurring inhibitors in Xian-Ling-Gu-Bao capsule against the glucuronidation of estrogens” (Frontiers in Pharmacology, 2022).

Experiments:
[1] = biological target: T1, UGT1A10 (Homo sapiens, UniProt Q9HAW8); assay: Inhibition of UGT1A10 (4-methylumbelliferone-O-glucuronidation); settings: best model by smallest AIC and SC
T1 sequence (Q9HAW8 26-530): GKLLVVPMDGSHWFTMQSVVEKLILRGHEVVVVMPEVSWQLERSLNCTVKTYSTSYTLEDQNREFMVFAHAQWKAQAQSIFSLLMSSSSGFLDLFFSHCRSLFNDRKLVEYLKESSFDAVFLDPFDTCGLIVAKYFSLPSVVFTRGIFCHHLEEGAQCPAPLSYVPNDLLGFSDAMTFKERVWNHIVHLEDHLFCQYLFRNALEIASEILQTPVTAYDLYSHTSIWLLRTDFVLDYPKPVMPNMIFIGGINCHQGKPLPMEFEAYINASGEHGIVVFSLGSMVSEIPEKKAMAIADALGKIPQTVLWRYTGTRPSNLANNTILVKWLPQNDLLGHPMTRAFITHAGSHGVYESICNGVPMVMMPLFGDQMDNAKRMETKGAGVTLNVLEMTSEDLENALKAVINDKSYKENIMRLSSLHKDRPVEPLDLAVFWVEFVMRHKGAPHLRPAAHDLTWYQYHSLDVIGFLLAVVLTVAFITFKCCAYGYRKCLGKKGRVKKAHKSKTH
Description: (§1) The final volume of solvent in incubations was 1%. In addition, emodin, atazanavir, and diclofenac were considered as positive controls for UGT1A10, UGT1A1, and UGT2B7, respectively.
(§2) Competitive inhibition, non-competitive inhibition, and mixed-type inhibition models were used to estimate the Ki values by nonlinear regression based on Eqs 6–8, respectively.

[2] = biological target: T2, UGT2B7 (Homo sapiens, UniProt P16662); assay: Inhibition of UGT2B7 (zidovudine-N-glucuronidation)
T2 sequence (P16662 24-529): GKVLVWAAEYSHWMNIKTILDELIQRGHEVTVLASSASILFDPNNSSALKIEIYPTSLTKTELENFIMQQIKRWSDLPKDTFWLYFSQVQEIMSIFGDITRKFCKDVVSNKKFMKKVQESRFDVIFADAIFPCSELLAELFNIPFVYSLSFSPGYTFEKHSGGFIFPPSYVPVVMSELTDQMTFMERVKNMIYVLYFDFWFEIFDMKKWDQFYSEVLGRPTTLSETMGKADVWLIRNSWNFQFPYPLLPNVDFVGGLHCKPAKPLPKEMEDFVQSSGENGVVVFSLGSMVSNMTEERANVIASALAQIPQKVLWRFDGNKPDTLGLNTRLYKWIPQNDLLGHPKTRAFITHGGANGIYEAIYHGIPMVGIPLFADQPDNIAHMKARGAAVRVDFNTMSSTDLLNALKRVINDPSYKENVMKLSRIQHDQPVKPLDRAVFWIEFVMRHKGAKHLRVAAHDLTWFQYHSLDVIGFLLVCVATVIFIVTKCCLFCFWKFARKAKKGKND
Description: as §1, §2

Row | Compound | Inhibitory type [1] | Ki [2] [nM]
1 | COc1ccc(-c2oc3c(CC=C(C)C)c(O[C@@H]4O[C@H](CO)[C@@H](O)[C@H](O)[C@H]4O)cc(O)c3c(=O)c2O[C@@H]2O[C@@H](C)[C@H](O)[C@@H](O)[C@H]2O)cc1 [Icariin, icariin] | Non-competitive | –
2 | C=C[C@@](C)(/C=C/c1ccc(O)cc1)CCC=C(C)C [Bakuchiol, bakuchiol] | – | 2020 ± 260
